Assay results: the CheMixHub ionic liquid set
± gives the uncertainty stated by the source.

Test: xn = mol fraction of the nth substance listed
Settings: 100 kPa

CCC[N+](CCC)(CCC)CCC.O=[N+]([O-])[O-] + CCCCCCCCCCCCOS(=O)(=O)[O-].[Na+] + O
viscosity [mPa·s]
Settings	x2 = 1.81e-06, x1 = 0.0001802	x2 = 3.61e-06, x1 = 0.0001802	x2 = 5.42e-06, x1 = 0.0001802	x2 = 7.22e-06, x1 = 0.0001802	x2 = 9.03e-06, x1 = 0.0001802	x2 = 1.084e-05, x1 = 0.0001802	x2 = 1.264e-05, x1 = 0.0001802	x2 = 1.445e-05, x1 = 0.0001802	x2 = 1.626e-05, x1 = 0.0001802	x2 = 1.806e-05, x1 = 0.0001802
293.15 K	1.013 ± 0.029	1.015 ± 0.029	1.016 ± 0.029	1.016 ± 0.029	1.017 ± 0.029	1.018 ± 0.029	1.019 ± 0.029	1.019 ± 0.029	1.019 ± 0.029	1.019 ± 0.029
298.15 K	0.898 ± 0.028	0.901 ± 0.028	0.901 ± 0.028	0.902 ± 0.028	0.903 ± 0.028	0.903 ± 0.028	0.903 ± 0.028	0.903 ± 0.028	0.904 ± 0.028	0.904 ± 0.028
303.15 K	0.795 ± 0.028	0.798 ± 0.028	0.799 ± 0.028	0.8 ± 0.028	0.8 ± 0.028	0.801 ± 0.028	0.801 ± 0.028	0.801 ± 0.028	0.801 ± 0.028	0.801 ± 0.028
308.15 K	0.707 ± 0.027	0.708 ± 0.027	0.709 ± 0.027	0.71 ± 0.027	0.713 ± 0.027	0.713 ± 0.027	0.713 ± 0.027	0.713 ± 0.027	0.714 ± 0.027	0.714 ± 0.027
313.15 K	0.64 ± 0.027	0.642 ± 0.027	0.643 ± 0.027	0.644 ± 0.027	0.644 ± 0.027	0.645 ± 0.027	0.645 ± 0.027	0.645 ± 0.027	0.645 ± 0.027	0.645 ± 0.027
318.15 K	0.594 ± 0.027	0.596 ± 0.027	0.597 ± 0.027	0.597 ± 0.027	0.598 ± 0.027	0.598 ± 0.027	0.598 ± 0.027	0.598 ± 0.027	0.598 ± 0.027	0.598 ± 0.027

CCC[N+](CCC)(CCC)CCC.O=[N+]([O-])[O-] + CCCCCCCCCCCC[N+](C)(C)C.[Br-] + O
viscosity [mPa·s]
Settings	x2 = 5.418e-05, x1 = 0.0001802	x2 = 0.0001084, x1 = 0.0001801	x2 = 0.0001625, x1 = 0.0001801	x2 = 0.0002167, x1 = 0.0001801	x2 = 0.0002708, x1 = 0.0001801	x2 = 0.000325, x1 = 0.0001801	x2 = 0.0003791, x1 = 0.0001801	x2 = 0.0004333, x1 = 0.0001801	x2 = 0.0004874, x1 = 0.0001801	x2 = 0.0005416, x1 = 0.0001801
293.15 K	1.042 ± 0.029	1.043 ± 0.029	1.045 ± 0.029	1.047 ± 0.029	1.048 ± 0.029	1.048 ± 0.029	1.049 ± 0.029	1.049 ± 0.029	1.049 ± 0.029	1.05 ± 0.029
298.15 K	0.924 ± 0.029	0.926 ± 0.029	0.927 ± 0.029	0.928 ± 0.029	0.928 ± 0.029	0.929 ± 0.029	0.929 ± 0.029	0.929 ± 0.029	0.93 ± 0.029	0.93 ± 0.029
303.15 K	0.819 ± 0.028	0.822 ± 0.028	0.824 ± 0.028	0.824 ± 0.028	0.825 ± 0.028	0.825 ± 0.028	0.825 ± 0.028	0.825 ± 0.028	0.826 ± 0.028	0.826 ± 0.028
308.15 K	0.729 ± 0.028	0.73 ± 0.028	0.731 ± 0.028	0.732 ± 0.028	0.735 ± 0.028	0.735 ± 0.028	0.735 ± 0.028	0.736 ± 0.028	0.736 ± 0.028	0.736 ± 0.028
313.15 K	0.661 ± 0.027	0.663 ± 0.027	0.664 ± 0.027	0.664 ± 0.027	0.665 ± 0.027	0.665 ± 0.027	0.666 ± 0.027	0.666 ± 0.027	0.666 ± 0.027	0.666 ± 0.028
318.15 K	0.614 ± 0.027	0.616 ± 0.027	0.617 ± 0.027	0.617 ± 0.027	0.618 ± 0.027	0.618 ± 0.027	0.618 ± 0.027	0.618 ± 0.027	0.618 ± 0.027	0.618 ± 0.027
